Screening data: PubChem, Broad Institute
SR-BI DiI-HDL act: activators of SR-BI mediated HDL lipid uptake; CHO ldlA[mSR-BI] cells, DiI-HDL uptake fluorescence, 3 h; 100 = double the neutral-control signal; activation, % at 12.5 µM; hit rate 0.096% among 320,000; AID 504775;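 active means mean replicate activation of at least 60% and every replicate at or above 60%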;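 further: 0% = median plate neutral-control signal and 100% = twice that signal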
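System: CHO ldlA[mSR-BI] cells / Medium: HEPES-buffered (25 mM, pH 7.4) F12 plus 0.5% BSA / Probe or stimulus: labelled HDL, 10 µg/mL / Doses: single compound concentration, delivered by pin transfer / Schedule: 3 h, 37 °C / Measured by: DiI fluorescence, bottom read / Measure: cell-associated DiI fluorescence as measure of HDL uptake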
Yeast UUG start: alters start codon recognition fidelity in yeast. S. cerevisiae UUG-firefly luciferase reporter, luminescence/redox ratio. AID 602363. activity score, % at 18.7 µM. hit rate 0.13% among 350,000;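 active = replicate mean at a twofold rise or more, about +100% in these data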;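 note: firefly luciferase made from a UUG start codon reports start codon fidelity; reporter light over untreated wells divided by growth signal over untreated wells; some hits fall short of that in this replicate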
INS-1E GSIS act: primary screen for activators of insulin secretion dependent on glucose, INS-1E cells, GLuc reporter luminescence; AID 743287; hit rate 0.61% among 370,000; activation, % at 16.6 µM; INS-1E GLuc reporter insulin secretion, 2-3 h;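 active means lowest replicate activation of at least 40%, so every replicate reaches that level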;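 further: 0% = median of neutral control wells and 100% = median of IBMX positive control wells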
SR-BI HDL uptake: inhibitors of mouse SR-BI mediated HDL lipid uptake; ldlA[mSR-BI] CHO cells, DiI-HDL uptake fluorescence, 3 h; hit rate 0.96% among 320,000; inhibition, % at 12.5 µM; AID 488896;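 active means mean replicate inhibition of at least 70% and a set share of replicates each scoring 70 or more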;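 further: 0% = median of neutral control wells and 100% = median of positive control wells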
* = called active by the depositor; · = not tested or not shown. In the library only some 1.3% were active in any assay of this set; here they are far more common.

Abbreviations – A = SR-BI DiI-HDL act; B = Yeast UUG start; C = INS-1E GSIS act; D = SR-BI HDL uptake
[1] O=c1cc(N2CCN(c3ccc(F)cc3)CC2)[nH]c(=O)n1Cc1ccc(F)cc1
  A: 0; B: -18; C: ·; D: 0
[2] CC1(C)C2CCC13CS(=O)(=O)N[C@@H]3C2 (stereo partly specified)
  A: 118*; B: -10; C: ·; D: -118
[3] COc1cc(CO)cc(Br)c1OCC(=O)Nc1cccc2ccccc12
  A: 3; B: -8; C: 48*; D: -3
[4] COCC(=O)Nc1cccc2ccccc12
  A: 0; B: ·; C: ·; D: 0
[5] Cc1c(C)n(C)c2ccc(C(=O)Nc3cccc4ccccc34)cc12
  A: -81; B: -19; C: ·; D: 81*
[6] O=C(N/N=C/c1ccccc1[N+](=O)[O-])c1ccc(CN2CCOCC2)cc1
  A: -29; B: ·; C: 10; D: 29
[7] C/C(=N/NC(=O)CNC(=O)c1ccccn1)c1ccccc1
  A: -10; B: ·; C: -5; D: 10
[8] C/C(=N\NC(=O)c1ccc(CN2CCOCC2)cc1)c1ccc([N+](=O)[O-])cc1
  A: -71; B: 12; C: -1; D: 71*
[9] Cc1cc(/C=N/NC(=O)c2ccc(CN3CCOCC3)cc2)c(C)n1-c1ccccc1
  A: -72; B: 8; C: -3; D: 72*
[10] C/C(=N/NC(=O)CNC(=O)c1ccccn1)c1ccc([N+](=O)[O-])cc1
  A: -80; B: ·; C: 0; D: 80*
[11] C[C@@H]1CCCCO[C@@H](CN(C)S(=O)(=O)c2cccs2)[C@@H](C)CN([C@@H](C)CO)C(=O)c2cc(NS(C)(=O)=O)ccc2O1
  A: ·; B: 7; C: 9; D: ·
[12] CC(C)C#Cc1ccc2c(c1)O[C@@H](CN(C)Cc1ccncc1)[C@H](C)CN([C@@H](C)CO)S2(=O)=O
  A: ·; B: 10; C: -4; D: ·
[13] C[C@@H]1CCCCO[C@@H](CN(C)Cc2ccc3c(c2)OCO3)[C@H](C)CN([C@@H](C)CO)C(=O)c2cc(NS(=O)(=O)c3cccs3)ccc2O1
  A: ·; B: 29; C: 17; D: ·
[14] CCOc1ccc(N(C)S(=O)(=O)c2ccc3[nH]cc(C(=O)NCCOC)c(=O)c3c2)cc1
  A: 11; B: -5; C: 66*; D: -11
[15] C[C@@H]1CN([C@@H](C)CO)C(=O)c2cc(N(C)C)ccc2O[C@@H](C)CCCCO[C@H]1CN(C)S(C)(=O)=O
  A: ·; B: -1; C: 2; D: ·

The results go on.
Abbreviations – A = SR-BI DiI-HDL act; B = Yeast UUG start; C = INS-1E GSIS act; D = SR-BI HDL uptake
[16] COc1ccc2c(c1)cc(C(=O)N/N=C/c1c(O)c(C(=O)O)cc3ccccc13)n2C
  A: -86; B: -17; C: ·; D: 86*
[17] Cn1c(O)c(/C=N/NC(=O)c2cc3ccccc3cc2O)c2ccccc21
  A: ·; B: -31; C: 5; D: ·
[18] CC(C)CCn1c(=O)c2ccccc2n2c(CN3CCOCC3)nnc12
  A: 10; B: ·; C: 45*; D: -10
[19] N#CN=CN1CC=C(c2ccc(Cl)cc2)CC1
  A: ·; B: ·; C: 67*; D: ·
[20] COc1ccccc1C(C[N+](=O)[O-])c1c(N)n(C)c(=O)n(C)c1=O (stereo unspecified)
  A: ·; B: -29; C: -23; D: ·
[21] Cn1c(N)c(C(c2ccccc2)c2c(N)n(C)c(=O)n(C)c2=O)c(=O)n(C)c1=O
  A: 15; B: ·; C: 41*; D: -16
[22] O=C(NCc1ccccc1)C(c1ccco1)N1CCN(C(=O)C2CCCO2)CC1 (stereo unspecified)
  A: ·; B: ·; C: -10; D: ·
[23] COc1cccc(C(C(=O)NCc2ccccc2)N2CCN(C(=O)C3CCCO3)CC2)c1OC (stereo unspecified)
  A: ·; B: ·; C: 43*; D: ·
[24] Cc1nc2cc(-c3cccc(F)c3)nn2c(C)c1CCC(=O)NC(C)c1ccc2c(c1)OCCO2 (stereo unspecified)
  A: -56; B: -12; C: ·; D: 56
[25] Cc1nc2cc(-c3ccccc3)nn2c(C)c1CCC(=O)NC(C)c1ccc2c(c1)OCCO2 (stereo unspecified)
  A: -77; B: -11; C: -5; D: 77*
[26] COc1ccccc1CCC(=O)Nc1ccc2c(c1)CN(Cc1ccc(CO)o1)CC2
  A: -77; B: 5; C: -7; D: 77*
[27] O=C(Nc1ccc2c(c1)CN(Cc1ccc(CO)o1)CC2)c1ccc(C(F)(F)F)cc1
  A: -54; B: -1; C: -16; D: 54
[28] CO[C@H]1CN(C)C(=O)c2cc(NS(C)(=O)=O)ccc2OC[C@@H](C)N(C(=O)C2CCCC2)C[C@@H]1C
  A: ·; B: 7; C: 10; D: ·
[29] CCOc1ccc(C(=O)Nc2nc3ccccc3[nH]2)cc1OCC
  A: -81; B: ·; C: 6; D: 81*
[30] Cc1[nH]n(-c2ccccc2)c(=O)c1N=Nc1c(O)cc(S(=O)(=O)N(C)C)c2ccccc12
  A: -136; B: -14; C: ·; D: 136*

Ordered by number of heavy atoms (ascending): part of the list above
Abbreviations – A = SR-BI DiI-HDL act; B = Yeast UUG start; C = INS-1E GSIS act; D = SR-BI HDL uptake
[19] N#CN=CN1CC=C(c2ccc(Cl)cc2)CC1
  A: ·; B: ·; C: 67*; D: ·
[17] Cn1c(O)c(/C=N/NC(=O)c2cc3ccccc3cc2O)c2ccccc21
  A: ·; B: -31; C: 5; D: ·
[22] O=C(NCc1ccccc1)C(c1ccco1)N1CCN(C(=O)C2CCCO2)CC1 (stereo unspecified)
  A: ·; B: ·; C: -10; D: ·
[23] COc1cccc(C(C(=O)NCc2ccccc2)N2CCN(C(=O)C3CCCO3)CC2)c1OC (stereo unspecified)
  A: ·; B: ·; C: 43*; D: ·

(list continues)
Abbreviations – A = SR-BI DiI-HDL act; B = Yeast UUG start; C = INS-1E GSIS act; D = SR-BI HDL uptake
[31] Cc1[nH]n(-c2ccccc2)c(=O)c1N=Nc1ccc2c(c1)OCCO2
  A: -11; B: ·; C: -5; D: 11
[32] CC(=O)N[C@H]1CC[C@H](CCNC(=O)Nc2ccc(C(F)(F)F)cc2)O[C@H]1CO
  A: ·; B: 4; C: -29; D: ·
[33] Cc1ccc2cc(C#N)c(SCC(=O)NNC(=O)Cc3ccccc3)nc2c1
  A: -7; B: -13; C: 127*; D: 7
[34] CCc1cc2cc(C)c(C)cc2nc1SCC(=O)NNC(=O)c1ccco1
  A: -75; B: ·; C: -9; D: 75*
[35] Cc1ccc2nc(SCC(=O)NCc3cccs3)c(C#N)cc2c1
  A: 5; B: -20; C: 54*; D: -5
[36] CCc1cc2cccc(C)c2nc1SCC(=O)NNC(=O)c1ccco1
  A: 15; B: -10; C: ·; D: -15
[37] CC(=O)N1CC2(C1)[C@H](c1ccc(-c3ccc(F)cc3)cc1)[C@H](CO)N2C(C)=O
  A: ·; B: ·; C: -13; D: ·
[38] Cc1sc2ncn(-c3ccccc3)c(=O)c2c1C
  A: -17; B: ·; C: -5; D: 17
[39] CCOc1ccc(-n2cnc3sc(C)c(C)c3c2=O)cc1
  A: -71; B: -10; C: 11; D: 71*
[40] COc1ccccc1-n1cnc2sc(C)c(C)c2c1=O
  A: 4; B: -17; C: 59*; D: -4
[41] CC(C)Oc1ccc(C(=O)CCN2CCOCC2)cc1
  A: 25; B: ·; C: 51*; D: -25
[42] CC(C)Oc1ccc(C(=O)CCN2CCCCC2)cc1
  A: -11; B: -11; C: ·; D: 11
[43] CCCCCCCCN1C(=O)[C@H](CC(=O)N2CCCCC2)C[C@@]2(C(=O)OC)CCCCC=C12
  A: ·; B: ·; C: 47*; D: ·
[44] CCCCCCCCN1C(=O)[C@H](CC(=O)N2CCCCC2)C[C@@]2(C(=O)OC)CC(C)(C)CC=C12
  A: ·; B: ·; C: 81*; D: ·
[45] CCCCCCCCN1C(=O)[C@H](CC(=O)N2CCOCC2)C[C@@]2(C(=O)OC)CC(C)(C)CC=C12
  A: ·; B: ·; C: -20; D: ·

New compounds follow.
Abbreviations – A = SR-BI DiI-HDL act; B = Yeast UUG start; C = INS-1E GSIS act; D = SR-BI HDL uptake
[46] C[C@H]1CN([C@@H](C)CO)C(=O)c2cc(NC(=O)c3ccncc3)ccc2O[C@@H]1CN(C)C(=O)Nc1ccc(C(F)(F)F)cc1
  A: ·; B: 4; C: 14; D: ·
[47] COCCNc1nc(NCCCN(C)C)c2sccc2n1
  A: ·; B: -12; C: 66*; D: ·
[48] COCCNc1nc(Oc2ccc(C(N)=O)cc2)c2sccc2n1
  A: ·; B: 1; C: 92*; D: ·
[49] C[C@H]1CN([C@@H](C)CO)S(=O)(=O)c2ccc(C3=CCCCC3)cc2O[C@H]1CN(C)C(=O)c1ccccc1
  A: ·; B: 15; C: -4; D: ·
[50] COc1ccc2c3c(n(C)c2c1)[C@H](CO)N(Cc1ccccc1F)CC31CN(C(=O)C2CCCC2)C1
  A: ·; B: ·; C: -15; D: ·
[51] COc1ccc([N+](=O)[O-])c(S(=O)(=O)c2ccc(Cl)cc2)n1
  A: -52; B: -59; C: 59*; D: 52
[52] O=[N+]([O-])c1cccnc1S(=O)(=O)c1ccccc1
  A: -3; B: -29; C: 130*; D: 3
[53] Cc1ccc(C(CC(N)=O)c2ccco2)cc1 (stereo unspecified)
  A: 71*; B: ·; C: ·; D: -71
[54] O=C(CC(c1ccccc1)c1ccco1)N1CCOCC1 (stereo unspecified)
  A: 11; B: -10; C: 49*; D: -11
[55] Cc1ccc(S(=O)(=O)NC(CC(=O)N2CCOCC2)c2ccco2)cc1 (stereo unspecified)
  A: 32; B: 3; C: 6; D: -32
